Results on 2 compounds are retold here after US20040266823A1 (priority 2001, published 2004).

Chains of the proteins cited; added tags and fusions are not shown.
UniProt P51681, whole entry: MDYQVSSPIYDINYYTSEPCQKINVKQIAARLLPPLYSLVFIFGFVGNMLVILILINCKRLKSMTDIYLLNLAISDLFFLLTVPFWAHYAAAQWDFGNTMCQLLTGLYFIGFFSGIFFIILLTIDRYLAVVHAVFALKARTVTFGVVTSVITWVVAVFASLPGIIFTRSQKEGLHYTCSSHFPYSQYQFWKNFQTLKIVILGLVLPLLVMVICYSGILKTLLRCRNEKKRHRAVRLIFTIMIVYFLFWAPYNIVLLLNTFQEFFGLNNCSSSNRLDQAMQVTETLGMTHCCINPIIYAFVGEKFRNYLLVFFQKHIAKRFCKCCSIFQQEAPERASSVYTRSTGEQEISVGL

For this assay, the target named is recombinant human CCR5 receptor (Homo sapiens, UniProt P51681). Briefly: MIP-1α radioligand binding assay (scintillation proximity). The settings on record: displacement of 0.1 nM iodinated MIP-1α, membranes from Chinese hamster ovary cells, average if tested more than once. Here is the method:
The ability of compounds to inhibit the binding of MIP-1α was assessed by an in vitro radioligand binding assay. Membranes were prepared from Chinese hamster ovary cells which expressed the recombinant human CCR5 receptor. These membranes were incubated with 0.1 nM iodinated MIP-1α, scintillation proximity beads and various concentrations of the compounds of the invention in 96 well plates. The amount of iodinated MIP-1α bound to the receptor was determined by scintillation counting. Competition curves were obtained for compounds and the concentration of compound which displaced 50% of bound iodinated MIP-1α was calculated (IC50).
In Table II the results are presented as Pic50 values. A Pic50 value is the negative log (to base 10) of the IC50 result, so an IC50 of 1 μM (that is 1×10^−6M) gives a Pic50 of 6. If a compounds was tested more than once then the data below is an average of the probative tests results.
Background: In a scintillation proximity assay essentially only radioactivity close to the scintillant gives light.

On to `CCN(C(=O)Cc1ccc(S(C)(=O)=O)cc1)C1CCN(CC[C@H](NC(=O)c2cnsn2)c2ccccc2)CC1`, for which the Pic50 (tested form: HCl) is reported as 7.01. As to `CCN(C(=O)Cc1ccc(S(C)(=O)=O)cc1)C1CCN(CC[C@H](NC(=O)NC2CCCC2)c2ccccc2)CC1`, the Pic50 stood at 8.2.
